Paper PMC6844273, “Platinum(IV) dihydroxido diazido N-(heterocyclic)imine complexes are potently photocytotoxic when irradiated with visible light” (Chemical Science, 2019)
“Also recorded” adds a separate entry of the source.

Legend:
[1] = test system: A2780, A2780cis and OE19 cancer cell lines; conditions: absence of irradiation, cell lines investigated
Experimental: (§1) The novel trans-di-(N-heterocyclic)imine dihydroxido diazido Pt^IV complexes Pt^IV complexes were evaluated against human ovarian (A2780), cisplatin-resistant ovarian (A2780cis) and oesophageal (OE19) cancer cell lines, and the previously reported compounds (FM165 and 3) were also evaluated for comparison. […]
(§2) Maintenance. Human ovarian carcinoma (A2780), cisplatin-resistant ovarian carcinoma (A2780CIS) and oesophageal adenocarcinoma (OE19) cells were maintained in RPMI medium containing 10% Foetal Calf Serum (FCS). Cell lines were obtained from the European Collection of Animal Cell Cultures (ECACC). Cells were maintained in antibiotic-free medium in a humidified atmosphere of 95% air: 5% CO2 and subcultured every 7-10 days. Mycoplasma checks were done using the Hoechst staining method. Cells were seeded into dishes the night before experiments at a density of 6 - 7×10^4 cells.cm-2.
(§3) Experiments were carried out in an adapted laboratory with ambient light levels kept below 1 lux […]
Irradiation. Cells were irradiated by a bank of TL03 light sources (λmax 420 nm), filtered to attenuate wavelengths below 400 nm. Irradiances, dosimetry and calibrations were traceable to the National […]
Cells were irradiated in stirred suspension. Sham irradiated cells were treated identically to the test cells but were covered during irradiation.
Treatment. Test compounds were prepared in Earle’s Balanced Salt Solution (EBSS) and filtered immediately before use. Photofrin was used as the positive control for visible light irradiation. The positive and negative controls were included on each plate in parallel with the complexes. Cell viability […]
Cells were treated for 1 h at 37 °C/5% CO2 with EBSS containing the test compound, and then irradiated with 5 J.cm-2 visible radiation.
Phototoxic Index and Wavelength-Dependence. The phototoxic Index (PI) was determined 24 h after irradiation using the neutral red uptake assay;14 following cell uptake the neutral red dye accumulates in lysosomes, the low pH in the lysosomal matrix of live cells causes the dye to becomes charged, allowing it to be retained in this organelle.15 The dye was then extracted from the cells upon solubilisation and quantified. Protocol: a stock solution of neutral red was prepared in water (4 mg. mL-1) and diluted 80-fold in the cell culture medium (RPMI). Prior to addition to the cells, the solution was heated to 37 °C and filtered (no. 1 Whatman paper). The growth medium was removed from the cells, the neutral red dye (100 μL) was added and the cells are incubated for 3 hours in the dark. […] The dye concentration was quantified by measuring the absorbance at 450 nm. […] Goodness of fit was determined from the R2 values of the curves and 95% confidence intervals. […]

[2] = Photodecomposition in H2O (loss of N3→Pt LMCT band) by UV-vis spectroscopy; type: physicochemical; conditions: for Time to achieve conversion comparable to 463 nm irradiation (loss of N3→Pt band): green light 517 nm, 30 mW cm^–2
Experimental: Solutions of the Pt^IV diazido complexes (60 μM, H2O) were irradiated with blue light (463 nm, 57 mW cm^–2). The decrease in intensity of the λmax N3 → Pt band was monitored over time for each complex by UV-vis spectroscopy until ca. 22% of the original intensity remained (Fig. S2 ^†). The data were fitted to y = y0 + Ae^Rox, with r^2 > 0.98 (Fig. 7).
Figure S2: Changes in UV-Vis spectra of the PtIV diazido complexes (60 μM in H2O) upon irradiation
Table S11. Decomposition half-lives of complexes (60 μM) when irradiated with blue (463 nm) light,
as measured by UV-Vis spectroscopy.
(1 picture or pasted object on this page, not shown here)

[3] = type: physicochemical; conditions: water, 20 °C
[4] = test system: human ovarian (A2780) cancer cell line; experiment: Phototoxicity / dark cytotoxicity, neutral red uptake assay, A2780
Experimental: as §1
(§4) controller and 3 UVA lamps (Hitachi, λmax = 361 nm) or 6 Luzchem LZC-420 lamps (λmax = 420 nm) with no other sources of light filtration, or LED light sources (BASETech model no. SP-GU10 230V~50 Hz […]
as §2, §3
Irradiation. Cells were irradiated by a bank of TL03 light sources (λmax 420 nm), filtered to attenuate wavelengths below 400 nm. […]
(§5) Phototoxic Index and Wavelength-Dependence. The phototoxic Index (PI) was determined 24 h after irradiation using the neutral red uptake assay;14 following cell uptake the neutral red dye accumulates in lysosomes, the low pH in the lysosomal matrix of live cells causes the dye to becomes charged, allowing it to be retained in this organelle.15 The dye was then extracted from the cells upon solubilisation and quantified. […] The dye concentration was quantified by measuring the absorbance at 450 nm. […] Goodness of fit was determined from the R2 values of the curves and 95% confidence intervals. […]

[5] = test system: cisplatin-resistant ovarian (A2780cis) cancer cell line; experiment: Phototoxicity / dark cytotoxicity, neutral red uptake assay, A2780cis
Experimental: as §1
Maintenance. Human ovarian carcinoma (A2780), cisplatin-resistant ovarian carcinoma (A2780CIS) and oesophageal adenocarcinoma (OE19) cells were maintained in RPMI medium containing 10% Foetal Calf Serum (FCS). Cell lines were obtained from the European Collection of Animal Cell Cultures (ECACC). Cells were maintained in antibiotic-free medium in a humidified atmosphere of 95% air: 5% CO2 and subcultured every 7-10 days. Mycoplasma checks were done using the Hoechst staining method. […]
as §5

[6] = test system: oesophageal (OE19) cancer cell line; experiment: Phototoxicity / dark cytotoxicity, neutral red uptake assay, OE19; conditions: ratio of cytotoxicity following irradiation (420 nm) vs. in the dark
Experimental: as §1, §4
Maintenance. Human ovarian carcinoma (A2780), cisplatin-resistant ovarian carcinoma (A2780CIS) and oesophageal adenocarcinoma (OE19) cells were maintained in RPMI medium containing 10% Foetal Calf Serum (FCS). Cell lines were obtained from the European Collection of Animal Cell Cultures (ECACC). […]
as §5

[7] = 60 μM in H2O, blue light 463 nm, 57 mW cm^–2, UV-vis

Substance: trans,trans,trans-[Pt(N3)2(OH)2(3-picoline)2] [Complex 23]
- Dark toxicity [1]: minimal toxicity in the dark; also recorded: non-toxic in the absence of irradiation

Substance: trans,trans,trans-[Pt(N3)2(OH)2(2-picoline)(pyridine)] [Complex 18]
- Decomposition half-life t1/2 [2, 7]: 9 min
- Time to achieve conversion comparable to 463 nm irradiation (loss of N3→Pt band) [2]: > 6 h
- Maximum aqueous solubility [3]: 20 mM
- Dark toxicity ([4]; A2780, absence of irradiation): moderate dark toxicity; also recorded: cytotoxic in the absence of irradiation
- Dark toxicity ([5]; absence of irradiation): moderate dark toxicity; also recorded: cytotoxic in the absence of irradiation

Substance: trans,trans,trans-[Pt(N3)2(OH)2(1-methylimidazole)2] [Complex 32]
- Decomposition half-life t1/2 ([2]; buffer): 22 min

Substance: trans,trans,trans-[Pt(N3)2(OH)2(3-picoline)(pyridine)] [Complex 19]
- Decomposition half-life t1/2 [2, 7]: 21 min
- Time to achieve conversion comparable to 463 nm irradiation (loss of N3→Pt band) [2]: > 6 h
- Maximum aqueous solubility [3]: 20 mM
- Dark toxicity [1]: minimally toxic in the absence of irradiation; also recorded: minimal toxicity in the dark; also recorded: non-toxic in the absence of irradiation

Substance: trans,trans,trans-[Pt(N3)2(OH)2(4-picoline)(pyridine)] [Complex 20]
- Decomposition half-life t1/2 [2, 7]: 20 min
- Time to achieve conversion comparable to 463 nm irradiation (loss of N3→Pt band) [2]: > 6 h
- Maximum aqueous solubility [3]: 20 mM
- Dark toxicity [1]: minimal toxicity in the dark; also recorded: non-toxic in the absence of irradiation

Substance: trans,trans,trans-[Pt(N3)2(OH)2(4-picoline)2] [Complex 26]
- Maximum aqueous solubility [3]: 4 mM
- Phototoxic potency, fold more potent than 3 ([4]; A2780, 420 nm): 3 fold
- PI (phototoxic index) ([4]; A2780, ratio of cytotoxicity following irradiation (420 nm) vs. in the dark): >95
- PI (phototoxic index) [6]: >24
- Dark toxicity [1]: minimally toxic in the absence of irradiation; also recorded: minimal toxicity in the dark; also recorded: non-toxic in the absence of irradiation
- PI (phototoxic index) ([5]; ratio of cytotoxicity following irradiation (420 nm) vs. in the dark): >48.8
